Earlier results, collected in patent publication US20060240051A1, “Eutectic blends containing a water soluble vitamin derivative” (priority 2005, published 2006).

Key:
[1] = non-ionic surfactant
[2] = in water
[3] = normal conditions

Q: For “d-α-tocopheryl polyethylene glycol 1000 succinate [Vitamin E TPGS]”, which HLB [1] is on record?
A: 16-18

Q: And the “concentration up to which solutions with water are formed” value [2]?
A: ≤ 20 weight %

Q: And the stability to hydrolysis [3]?
A: very stable and does not hydrolyze under normal conditions
